These results are taken from patent US7750135B2, “Molecular design of thermostable alcohol dehydrogenase for synthesis for chiral aromatic alcohols” (Board of Trustees of Michigan State University, priority 2007, dated 2010).

Amino acid sequences for entries named in this document (tags omitted).
UniProt P14941, whole entry W110A/A186D: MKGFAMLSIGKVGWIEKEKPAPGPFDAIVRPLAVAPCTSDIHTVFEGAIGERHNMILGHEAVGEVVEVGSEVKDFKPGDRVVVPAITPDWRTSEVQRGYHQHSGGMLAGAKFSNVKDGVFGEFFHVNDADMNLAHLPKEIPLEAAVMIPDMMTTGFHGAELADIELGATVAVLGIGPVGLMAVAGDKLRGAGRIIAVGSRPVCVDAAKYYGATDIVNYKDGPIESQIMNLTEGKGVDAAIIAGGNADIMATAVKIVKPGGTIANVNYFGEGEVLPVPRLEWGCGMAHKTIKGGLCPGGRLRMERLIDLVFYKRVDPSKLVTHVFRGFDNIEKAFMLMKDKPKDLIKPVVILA

Assay type in all cases: biochemical, Thermoanaerobacter ethanolicus
For assay [1], the target named is T1, W110A TeSADH (Thermoanaerobacter brockii, UniProt P14941, A186D/W110A).
T1 construct: His6 (C); made in house; host or cells: E. coli HB101 (DE3) and BL21 (DE3), pET24a(+)
The note with it: 60° C., 1 min, 50 mM Tris-HCl pH ~8.0 (alcohols) or ~6.5 (ketones), 0.4 mM NADP(H).

The target in assay [2] is T1, W110A TeSADH. The note with it: heat-treated crude extracts.
The test system of assay [3] is W110A TeSADH. As to conditions: purified W110A TeSADH versus TeSADH.
Assay [4] has as its target T1, W110A TeSADH. As to conditions: substrate 10 mM; 60° C., 1 min, 50 mM Tris-HCl pH~6.5 (reduction of ketones) or pH~8.0 (oxidation of alcohols), 0.4 mM NADP(H).

In the case of `CCC(C)O` (centres unmarked) [2-Butanol], the “Vmax (app), W110A TeSADH” value on W110A TeSADH [1] is on record as 29.2 ± 3.6 U/mg. The Km on W110A TeSADH [1] (read-out: Km (app), W110A TeSADH) came to 80.3 ± 18 mM. In addition, the “Activity of W110A TeSADH” value at W110A TeSADH [2] is on record as “much less active”. For the same compound, in the assay on W110A TeSADH [3], the “Fold lower activity of W110A TeSADH than TeSADH” value was determined as 10 fold. The “Specific activity, W110A” value on W110A TeSADH [4] is on record as 3.65 U(umol)/mg protein.

As a reminder, the Km is the concentration of substrate that gives half-maximal velocity.
